Measurements published in paper PMC4394464, “Identification and Pharmacokinetics of Multiple Potential Bioactive Constituents after Oral Administration of Radix Astragali on Cyclophosphamide-Induced Immunosuppression in Balb/c Mice” (International Journal of Molecular Sciences, 2015).

Assay: Profiling of absorbed constituents and metabolites in mice plasma after oral administration of RA (UFLC-DAD-Q-TOF-MS/MS)
Conditions: oral RA extract 6 g/kg BW; cyclophosphamide-induced immunosuppressed Balb/c mice; plasma sampled 0.25-36 h; '-' = not detected

For Glucuronidated rhamnocitrin [Peak M4], which “Source: Dosed Plasma (time points at which the compound was detected)” value is on record?
Its value is 0.25 to 8 h.
